{"sequences": {"note": "Sequences of proteins named here, by UniProt entry; tags and fusion partners are left off.", "UniProt Q9C0B1, whole entry, looked up": "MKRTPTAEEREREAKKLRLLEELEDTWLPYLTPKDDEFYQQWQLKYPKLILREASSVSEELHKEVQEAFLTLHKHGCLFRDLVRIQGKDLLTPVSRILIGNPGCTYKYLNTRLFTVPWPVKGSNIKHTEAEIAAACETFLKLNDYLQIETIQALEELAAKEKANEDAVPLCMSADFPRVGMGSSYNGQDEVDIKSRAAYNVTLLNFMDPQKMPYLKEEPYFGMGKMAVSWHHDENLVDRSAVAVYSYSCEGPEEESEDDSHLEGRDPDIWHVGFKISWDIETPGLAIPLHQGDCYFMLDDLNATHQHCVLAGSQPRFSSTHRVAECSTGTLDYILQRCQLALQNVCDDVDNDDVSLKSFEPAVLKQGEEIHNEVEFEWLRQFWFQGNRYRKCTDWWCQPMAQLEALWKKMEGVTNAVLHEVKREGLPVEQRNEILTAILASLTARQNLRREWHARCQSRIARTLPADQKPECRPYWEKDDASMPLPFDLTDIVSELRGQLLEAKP"}, "source": "ChEMBL document CHEMBL6134818", "about": "“Development of 3-arylaminothiophenic-2-carboxylic acid derivatives as new FTO inhibitors showing potent antileukemia activities” (Eur J Med Chem, 2025)", "target": "Alpha-ketoglutarate-dependent dioxygenase FTO (Homo sapiens, UniProt Q9C0B1)"}
{"smiles": "Cc1n[nH]c(C)c1-c1cc(Cl)c(Nc2ccsc2C(=O)O)c(Cl)c1", "values": [{"measurement": "ΔTm", "value": 2, "unit": "°C"}]}
